{
  "source": "patent US20230303817A1",
  "about": "“BLENDED POLYVINYL ALCOHOL DRUG DELIVERY SYSTEMS” (The University of British Columbia, priority 2020, published 2023)",
  "test": "Release of other therapeutic agents from blended PVA cast films or electrospun membranes",
  "type": "physicochemical",
  "conditions": "1% BSA",
  "description": "Films or electrospun membrane were manufactured as described above containing either docetaxel, doxycycline, gentamicin or bovine serum albumin (BSA; as a protein model for any “biological” based drug such as an antibody). […] Gentamicin was analyzed using a fluorescence tag assay using Fluoraldehyde™ (Thermo Fisher) and BSA protein release was assayed using a BCA protein analysis kit.",
  "data": [
    {"substance": "bovine serum albumin [BSA]", "values": [
      {"measurement": "protein release", "setting": "cast films of blended PVA 99%:88%, at day 6", "result": 100, "unit": "%"},
      {"measurement": "protein release", "setting": "electrospun membrane of blended PVA 99%:88%, at 6 days", "result": 10, "unit": "%"}
    ]}
  ]
}
